According to ChEMBL document CHEMBL1125675, “Synthesis and in vitro biological activity of new deaza analogues of folic acid, aminopterin, and methotrexate with an L-ornithine side chain” (J Med Chem, 1991):

Molecular target: T1, Dihydrofolate reductase (Homo sapiens, UniProt P00374)
T1 sequence (P00374 whole entry): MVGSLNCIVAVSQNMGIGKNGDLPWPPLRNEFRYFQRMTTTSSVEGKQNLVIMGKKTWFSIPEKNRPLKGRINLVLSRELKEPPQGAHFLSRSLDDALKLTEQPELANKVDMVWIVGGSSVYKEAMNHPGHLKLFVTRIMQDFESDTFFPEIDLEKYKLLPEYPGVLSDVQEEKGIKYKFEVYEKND
Assay: Inhibition of dihydrofolate reductase(DHFR) enzyme from human leukemic lymphoblasts.
Procedure, shortened: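 Spectrophotometric read-out at 340 nm. Enzyme was DHFR purified from human leukemic lymphoblasts (WI-L2/M4).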

IC50: 72 nM
Compound: NCCCC(NC(=O)c1ccc(NCc2cnc3nc(N)nc(N)c3n2)cc1)C(=O)O (stereo unspecified)
